According to publication PMC9769502 (Microbiology Spectrum, 2022):

Legend:
[1] = tested on: Leishmania donovani axenic amastigotes; conditions: 48 h
Procedure: We utilized a previously developed high-throughput screening assay using transgenic axenic amastigotes expressing a red fluorescent protein, mCherry. Changes in mCherry fluorescence were normalized to 50 μM miltefosine in order to quantify parasite inhibition ([52]). In total, 5 scaffold 25-mer peptides and 475 synthetic 25-mer peptide variants were screened (Fig. 1). […] The assay was repeated, and the average percent parasite killing was determined.
Axenic amastigotes were differentiated as described previously ([69]).
Axenic amastigotes were differentiated as described previously ([69]); briefly, transgenic L. donovani promastigotes expressing mCherry were differentiated by pH and temperature shifts. Amastigotes were seeded into 96-well plates at 5 × 10^6 cells/mL and incubated for 48 h in the presence of decreasing drug concentrations, starting at 20 μM, along with the appropriate solvent controls. Fluorescence was monitored (587-nm excitation/610-nm emission) over 48 h using a FlexStation 3 benchtop multimode reader (Molecular Devices). […] Thus, changes in mCherry fluorescence were normalized to the 50 μM miltefosine control in order to quantify parasite inhibition. Each assay was performed in triplicate. The IC50 values were calculated by nonlinear regression analysis using GraphPad Prism 9.0 for Windows.

THP-1 macrophages = test: Cytotoxicity against THP-1 macrophages (CellTiter-Blue); type: cell-based, human
Procedure: THP-1 (human acute monocytic leukemia-derived) host macrophages were cultured in RPMI 1640 supplemented with 10% FCS and a penicillin-streptomycin antibiotic solution (10,000 U/mL penicillin, 10,000 μg/mL streptomycin) at 37°C with 5% CO2. THP-1 cells were incubated with 0.25 μM phorbol 12-myristate […] (PMA) for 48 h to differentiate into mature macrophages. Differentiated macrophages were seeded into 96-well plates at 5 × 10^6 cells/mL and incubated for 48 h in the presence of 20 μM antimicrobial peptides along with the appropriate solvent controls. Cell viability assays were conducted using CellTiter-Blue (Promega), based on resazurin reduction. After the 48-h incubation period, CellTiter-Blue reagent was added to cells for 4 h at 37°C, and fluorescence was measured (555-nm excitation/580-nm emission) using a FlexStation 3 benchtop multimode reader (Molecular Devices). Each assay was performed in triplicate. The CC50 values were calculated by nonlinear regression analysis using GraphPad Prism 9.0 for Windows.

[2] = PMA-differentiated THP-1 macrophages, 48 h, CellTiter-Blue (resazurin) fluorescence, highest concentration screened 20 μM, mean of three replicates
[3] = read-out: Axenic amastigotes Mean IC50 ± SD, L. donovani mCherry axenic amastigotes, fluorescence normalized to 50 μM miltefosine, highest concentration 20 μM, mean of three replicates

Row | SMILES | IC50 [1] [nM] | THP-1 macrophage CC50 (THP-1 macrophages; [2]) | THP-1 macrophage CC50 (THP-1 macrophages) [nM] | THP-1 macrophage CC50 (THP-1 macrophages; 48 h) [nM] | IC50 [1, 3] [nM]
1 | CC[C@H](C)[C@H](NC(=O)[C@H](CO)NC(=O)[C@H](CCC(=O)O)NC(=O)[C@H](CCCNC(=N)N)NC(=O)CNC(=O)[C@@H](N)Cc1c[nH]c2ccccc12)C(=O)N[C@@H](CCCCN)C(=O)N[C@@H](C)C(=O)N[C@@H](Cc1ccc(O)cc1)C(=O)N[C@@H](CC(C)C)C(=O)N[C@@H](CCCCN)C(=O)N[C@@H](CCCCN)C(=O)N[C@@H](CCC(=O)O)C(=O)N[C@H](C(=O)N[C@@H](CCCCN)C(=O)N[C@@H](CCCCN)C(=O)NCC(=O)N[C@@H](CCCCN)C(=O)N[C@@H](CCCCN)C(=O)N[C@@H](CCCNC(=N)N)C(=O)N[C@@H](C)C(=O)N[C@H](C(=O)N[C@H](C(=O)N[C@@H](C)C(=O)N[C@@H](Cc1c[nH]c2ccccc12)C(=O)O)[C@@H](C)CC)C(C)C)[C@@H](C)CC [Syn-enterocin 15] | 360 ± 30 | > 20000 nM | – | – | –
2 | CC[C@H](C)[C@H](NC(=O)[C@H](CO)NC(=O)[C@H](CCC(=O)O)NC(=O)[C@H](CCCNC(=N)N)NC(=O)[C@H](Cc1c[nH]c2ccccc12)NC(=O)[C@H](C)N)C(=O)N[C@@H](CCCCN)C(=O)N[C@@H](C)C(=O)N[C@@H](Cc1ccc(O)cc1)C(=O)N[C@@H](CC(C)C)C(=O)N[C@@H](CCCCN)C(=O)N[C@@H](CCCCN)C(=O)N[C@@H](CCC(=O)O)C(=O)N[C@H](C(=O)N[C@@H](CCCCN)C(=O)N[C@@H](CCCCN)C(=O)NCC(=O)N[C@@H](CCCCN)C(=O)N[C@@H](CCCCN)C(=O)N[C@@H](CCCNC(=N)N)C(=O)N[C@@H](C)C(=O)N[C@H](C(=O)N[C@H](C(=O)N[C@@H](C)C(=O)N[C@@H](Cc1c[nH]c2ccccc12)C(=O)O)[C@@H](C)CC)C(C)C)[C@@H](C)CC [Syn-enterocin 39] | 270 ± 50 | – | > 20000 | >20000 | –
3 | CC[C@H](C)[C@H](NC(=O)[C@H](CO)NC(=O)[C@H](CCC(=O)O)NC(=O)[C@H](CCCNC(=N)N)NC(=O)CNC(=O)[C@H](C)N)C(=O)N[C@@H](CCCCN)C(=O)N[C@@H](C)C(=O)N[C@@H](Cc1ccc(O)cc1)C(=O)N[C@@H](CC(C)C)C(=O)N[C@@H](CCCCN)C(=O)N[C@@H](CCCCN)C(=O)N[C@@H](CCC(=O)O)C(=O)N[C@H](C(=O)N[C@@H](CCCCN)C(=O)N[C@@H](CCCCN)C(=O)N[C@@H](Cc1c[nH]c2ccccc12)C(=O)N[C@@H](CCCCN)C(=O)N[C@@H](CCCCN)C(=O)N[C@@H](CCCNC(=N)N)C(=O)N[C@@H](C)C(=O)N[C@H](C(=O)N[C@H](C(=O)N[C@@H](C)C(=O)N[C@@H](Cc1c[nH]c2ccccc12)C(=O)O)[C@@H](C)CC)C(C)C)[C@@H](C)CC [Syn-enterocin 47] | 280 ± 70 | > 20000 nM | – | – | –
4 | CC[C@H](C)[C@H](NC(=O)[C@H](CCCNC(=N)N)NC(=O)[C@H](C)NC(=O)[C@@H](NC(=O)[C@H](CCCCN)NC(=O)CNC(=O)[C@H](CCCCN)NC(=O)[C@H](CCCCN)NC(=O)[C@H](CCCCN)NC(=O)[C@@H](NC(=O)[C@H](CCC(=O)O)NC(=O)[C@H](CCCCN)NC(=O)[C@H](CCCCN)NC(=O)[C@H](CC(C)C)NC(=O)[C@H](Cc1ccc(O)cc1)NC(=O)[C@H](CCCCN)NC(=O)[C@H](CCCCN)NC(=O)[C@@H](NC(=O)[C@H](CO)NC(=O)[C@H](CCC(=O)O)NC(=O)[C@H](CCCNC(=N)N)NC(=O)CNC(=O)[C@H](C)N)[C@@H](C)CC)[C@@H](C)CC)C(C)C)C(=O)N[C@@H](C)C(=O)N[C@@H](Cc1c[nH]c2ccccc12)C(=O)O [Syn-enterocin 69] | 1030 ± 130 | – | > 20000 | >20000 | –
5 | CC[C@H](C)[C@H](NC(=O)[C@H](CO)NC(=O)[C@H](CCC(=O)O)NC(=O)[C@H](CCCNC(=N)N)NC(=O)CNC(=O)[C@H](C)N)C(=O)N[C@@H](CCCCN)C(=O)N[C@@H](C)C(=O)N[C@@H](Cc1ccc(O)cc1)C(=O)N[C@@H](CC(C)C)C(=O)N[C@@H](CCCCN)C(=O)N[C@@H](CCCCN)C(=O)N[C@@H](CCC(=O)O)C(=O)N[C@H](C(=O)N[C@@H](CCCCN)C(=O)N[C@@H](CCCCN)C(=O)N[C@@H](CCCCN)C(=O)NCC(=O)N[C@@H](CCCCN)C(=O)N[C@@H](CCCNC(=N)N)C(=O)N[C@@H](C)C(=O)N[C@H](C(=O)N[C@H](C(=O)N[C@@H](C)C(=O)N[C@@H](Cc1c[nH]c2ccccc12)C(=O)O)[C@@H](C)CC)C(C)C)[C@@H](C)CC [Syn-enterocin-1] | – | below 20 μM | – | – | 19300
6 | CC[C@H](C)[C@H](NC(=O)[C@H](CCC(=O)O)NC(=O)[C@H](CCCCN)NC(=O)[C@H](CCCCN)NC(=O)[C@H](CC(C)C)NC(=O)[C@H](Cc1ccc(O)cc1)NC(=O)[C@H](CCCCN)NC(=O)[C@H](Cc1c[nH]c2ccccc12)NC(=O)[C@@H](NC(=O)[C@H](CO)NC(=O)[C@H](CCC(=O)O)NC(=O)[C@H](CCCNC(=N)N)NC(=O)CNC(=O)[C@H](C)N)[C@@H](C)CC)C(=O)N[C@@H](CCCCN)C(=O)N[C@@H](CCCCN)C(=O)N[C@@H](CCCCN)C(=O)NCC(=O)N[C@@H](CCCCN)C(=O)N[C@@H](CCCNC(=N)N)C(=O)N[C@@H](C)C(=O)N[C@H](C(=O)N[C@H](C(=O)N[C@@H](C)C(=O)N[C@@H](Cc1c[nH]c2ccccc12)C(=O)O)[C@@H](C)CC)C(C)C [Syn-enterocin-19] | – | below 20 μM | – | – | 730
7 | CC[C@H](C)[C@H](NC(=O)[C@H](CO)NC(=O)[C@H](CCC(=O)O)NC(=O)[C@H](CCCNC(=N)N)NC(=O)[C@H](Cc1c[nH]c2ccccc12)NC(=O)[C@H](C)N)C(=O)N[C@@H](CCCCN)C(=O)N[C@@H](C)C(=O)N[C@@H](CCC(=O)O)C(=O)N[C@@H](CC(C)C)C(=O)N[C@@H](CCCCN)C(=O)N[C@@H](CCCCN)C(=O)N[C@@H](Cc1ccc(O)cc1)C(=O)N[C@H](C(=O)N[C@@H](CCCCN)C(=O)N[C@@H](CCCCN)C(=O)N[C@@H](CCCCN)C(=O)NCC(=O)N[C@@H](CCCCN)C(=O)N[C@@H](CCCNC(=N)N)C(=O)N[C@@H](C)C(=O)N[C@H](C(=O)N[C@H](C(=O)N[C@@H](C)C(=O)N[C@@H](Cc1c[nH]c2ccccc12)C(=O)O)[C@@H](C)CC)C(C)C)[C@@H](C)CC [Syn-enterocin-36] | – | – | < 20000 | – | 3210
8 | CC[C@H](C)[C@H](NC(=O)[C@H](Cc1c[nH]c2ccccc12)NC(=O)[C@H](C)NC(=O)[C@H](CCCNC(=N)N)NC(=O)[C@H](CCCCN)NC(=O)CNC(=O)[C@H](CCCCN)NC(=O)[C@H](CCCCN)NC(=O)[C@H](CCCCN)NC(=O)[C@@H](NC(=O)[C@H](Cc1ccc(O)cc1)NC(=O)[C@H](CCCCN)NC(=O)[C@H](CCCCN)NC(=O)[C@H](CC(C)C)NC(=O)[C@H](CCC(=O)O)NC(=O)[C@H](C)NC(=O)[C@H](CCCCN)NC(=O)[C@@H](NC(=O)[C@H](CO)NC(=O)[C@H](CCC(=O)O)NC(=O)[C@H](CCCNC(=N)N)NC(=O)CNC(=O)[C@H](C)N)[C@@H](C)CC)[C@@H](C)CC)C(=O)N[C@@H](C)C(=O)N[C@@H](Cc1c[nH]c2ccccc12)C(=O)O [Syn-enterocin-60] | – | < 20000 nM | – | – | 290

Like-named read-outs stand apart in the source and are kept apart here.
